## Yeast mating assay 2: variants of the scFv Ab-91

Source: Engelhart et al. 2022 (doi:10.1038/s41597-022-01779-4), MIT Lincoln Laboratory and A-Alpha Bio; data file from the FLAb repository.

Binding partner: SARS-CoV-2 spike HR2 peptide, sequence PDVDLGDISGINAS.

Ab-91 is the parent antibody, in scFv form: VL, then the linker GGGGSGGGGSGGGGS, then VH. The light chain is unchanged in all variants.
VL: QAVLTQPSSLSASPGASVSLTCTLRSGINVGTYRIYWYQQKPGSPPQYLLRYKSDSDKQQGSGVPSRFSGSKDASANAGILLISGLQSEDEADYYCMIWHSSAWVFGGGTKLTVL
VH: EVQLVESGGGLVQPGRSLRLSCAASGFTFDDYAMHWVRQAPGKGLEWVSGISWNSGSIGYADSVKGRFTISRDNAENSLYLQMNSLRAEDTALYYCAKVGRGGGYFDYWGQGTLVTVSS

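The library (AAYL51) carries one to three amino acid substitutions per variant, with no insertions or deletions. In AlphaSeq, yeast of one mating type display the scFv and yeast of the other type display the target. Binding brings cells together so that they mate, and sequencing counts the barcode pairs among the diploids. The ratio of observed to expected reads was calibrated, replicate by replicate, on BCL2-family standards whose Kd was known from biolayer interferometry. The assay was run in three technical replicates.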

Variants are written as CDR1, CDR2 and CDR3 of the heavy chain (limits as in the source). Parent: GFTFDDYAMH, GISWNSGSIGYADSVK, VGRGGGYFDY.
Every variant below is changed at D62 of the VH (sequential numbering).
Numbers give log10(Kd / nM), so 0 is 1 nM and 3 is 1 µM. Smaller is tighter.
A mean of the replicates is given; it leaves out those without a signal.
Where no diploid with the target was found in any replicate, the entry reads "nd": below detection, most likely a poor binder, though not proof of it.
Parent in this assay: reference entry 1.86, copy in this library 0.88.
Empty control strains, which show no peptide, gave a signal in 21% of pairings with library AAYL51; the median was 4.54 and 95% of these signals were weaker than 3.26. No background was subtracted. The control count says in how many pairings with the empty strains this scFv gave a signal.

* GFTFDDYAMH | GISWNSGSIGYATSVI | VGLGGGYFDY = 3.95 (1 of 3 replicates; controls 1 of 9)
* GFTFDDYAMH | GISWNSGSIGYAGSVK | VGRGGGYFNY = 4.52 (1 of 3 replicates; controls 1 of 9)
* GFTFDDYAMH | GISWNSGSIGYAFSVK | VGNGGWYFDY = nd (0 of 3 replicates; controls 0 of 9)
* GFTFDDYAMH | GISWNSGSIGYAIPVK | PGRGGGYFDY = 2.55 (3 of 3 replicates; controls 6 of 9)
* GFTFDDYAMH | GISTNSGSIGYAHSVK | VGRGGGYFDY = 2.40 (3 of 3 replicates; controls 5 of 9)
* GFTFDDYAMH | GISWNSGFIGYACSVK | HGRGGGYFDY = nd (0 of 3 replicates; controls 2 of 9)
* GFTFDDYMMH | GISWNSGSIGEAYSVK | VGRGGGYFDY = nd (0 of 3 replicates; controls 3 of 9)
* GFTFDPYAMH | GISWNSGSKGYAHSVK | VGRGGGYFDY = nd (0 of 3 replicates; controls 1 of 9)
* GFTFDDYAAH | HISWNSGSIGYAISVK | VGRGGGYFDY = 4.09 (1 of 3 replicates; controls 1 of 9)
* GKTFDDYAEH | GISWNSGSIGYAWSVK | VGRGGGYFDY = nd (0 of 3 replicates; controls 0 of 9)
* GFTFDDYASH | GISWNSGSIGYACSVK | VGRGGGYFHY = 5.74 (1 of 3 replicates; controls 6 of 9)
* GWTFDDYAMH | GISWNSGSIGYAISSK | VGRGGGYFDY = 4.64 (1 of 3 replicates; controls 4 of 9)
* GFTVDDYAMH | GISWNSGSIGYAISVK | VGRGLGYFDY = nd (0 of 3 replicates; controls 0 of 9)
* GFTFDDYAMR | GISWNQGSIGYAYSVK | VGRGGGYFDY = nd (0 of 3 replicates; controls 0 of 9)
* GFTFDDYRMH | GISWNSGSIGYACSVK | VGRGGGYVDY = 5.39 (3 of 3 replicates; controls 7 of 9)
* GFTFDDYANH | GISWNEGSIGYAISVK | VGRGGGYFDY = nd (0 of 3 replicates; controls 0 of 9)
* GFTFDDYAMH | GISRNSGSIGYASSVK | VGRGGGYFDY = nd (0 of 3 replicates; controls 1 of 9)
* GFTFDDYAMH | GISWNSGSIGYACSVY | VGRGGGYFDD = 3.16 (3 of 3 replicates; controls 4 of 9)
* GFTFDDYAMH | GISWNFGSIGYAPSVK | VGRGGGQFDY = 5.80 (2 of 3 replicates; controls 3 of 9)
* GFTFDDYAMH | GISWNSGSIGYACSVK | VGRGWGYCDY = nd (0 of 3 replicates; controls 0 of 9)
* GFTFDDYAMH | GGSWNSGSIGYAQSVK | PGRGGGYFDY = nd (0 of 3 replicates; controls 1 of 9)
* GFTFDDYAMH | GISWSVGSIGYAASVK | VGRGGGYFDY = nd (0 of 3 replicates; controls 1 of 9)
* MFTFDDYAMH | GISWNSGSIGYAWSVK | VGRGGGYKDY = nd (0 of 3 replicates; controls 1 of 9)
* GFNFEDYAMH | GISWNSGSIGYAMSVK | VGRGGGYFDY = 3.25 (3 of 3 replicates; controls 7 of 9)
* GFMFDDYAMH | GISWNSGSIGYAGFVK | VGRGGGYFDY = 2.97 (1 of 3 replicates; controls 0 of 9)
* GFTFDDYAMH | GISINSGSIGYAISVK | VGRGGGYFDP = nd (0 of 3 replicates; controls 0 of 9)
* GFTFDDYAMH | PPSWNSGSIGYAQSVK | VGRGGGYFDY = nd (0 of 3 replicates; controls 0 of 9)
* GFTFDDYAMH | DISWNSGSIGYAWSVK | VGRGGIYFDY = 1.64 (1 of 3 replicates; controls 0 of 9)
* GFEFDDYAMH | GISWNSGSIGYARSVK | KGRGGGYFDY = 4.76 (1 of 3 replicates; controls 2 of 9)
* GFTFDDYAMH | GISWNSGSIGYAQSVK | VGRGGGYFDY = 3.05 (3 of 3 replicates; controls 2 of 9)
* MFTFDDYAMH | GISWNSGSIGYANSVK | VGRFGGYFDY = 4.50 (1 of 3 replicates; controls 2 of 9)
* GFTFDDYAMH | GISWNSGSIGYAMSVK | TKRGGGYFDY = 2.96 (3 of 3 replicates; controls 0 of 9)
* GFTFDDYAMH | GISWNSGSIGYAASVK | VGRGGGYFDY = 4.64 (2 of 3 replicates; controls 4 of 9)

Picked from the list: the 5 lowest averages where every replicate gave a value.

{"CDR-H1": "GFTFDDYAMH", "CDR-H2": "GISTNSGSIGYAHSVK", "CDR-H3": "VGRGGGYFDY", "mean log10 Kd (nM)": "2.40", "detected": "3/3", "control signals": "5/9"}
{"CDR-H1": "GFTFDDYAMH", "CDR-H2": "GISWNSGSIGYAIPVK", "CDR-H3": "PGRGGGYFDY", "mean log10 Kd (nM)": "2.55", "detected": "3/3", "control signals": "6/9"}
{"CDR-H1": "GFTFDDYAMH", "CDR-H2": "GISWNSGSIGYAMSVK", "CDR-H3": "TKRGGGYFDY", "mean log10 Kd (nM)": "2.96", "detected": "3/3", "control signals": "0/9"}
{"CDR-H1": "GFTFDDYAMH", "CDR-H2": "GISWNSGSIGYAQSVK", "CDR-H3": "VGRGGGYFDY", "mean log10 Kd (nM)": "3.05", "detected": "3/3", "control signals": "2/9"}
{"CDR-H1": "GFTFDDYAMH", "CDR-H2": "GISWNSGSIGYACSVY", "CDR-H3": "VGRGGGYFDD", "mean log10 Kd (nM)": "3.16", "detected": "3/3", "control signals": "4/9"}